Laboratory results from patent US10813933B2, “Therapeutic agent for lung cancer that has acquired EGFR-TKI resistance” (JAPANESE FOUNDATION FOR CANCER RESEARCH, priority 2016, dated 2020).
Where two headings read alike, the source gives them in different places.

Assays:
[1] = test system: phosphorylation of EGFR and downstream signal transductions in T790M/exon 19 deletion mutant expressing PC9 cell line; test: Western blotting of EGFR signal, PC9 T790M; assay type: cell-based, human; details: FIG. 10B, 10D
[2] = test system: phosphorylation of EGFR and downstream signal transductions in T790M/del19 Ba/F3 cells; test: Western blotting of EGFR phosphorylation and downstream signal; assay type: cell-based, mouse; details: 10, 100, 1000 nM; FIG. 2E
[3] = test system: phosphorylation of EGFR and downstream signal transductions in parental line PC9; test: Western blotting of EGFR signal, PC9; assay type: cell-based, human; details: FIG. 10A, 10D
[4] = test system: EGFR gene mutation-positive case; details: NEJ002; cited from earlier work
[5] = test system: EGFR gene mutation-positive case; details: cited from earlier work
[6] = test system: phosphorylation of EGFR and downstream signal transductions in triple-mutant expressing PC9 cell line; test: Western blotting of EGFR signal, PC9 triple-mutant; assay type: cell-based, human; details: FIG. 10C, 10D

COc1cc2ncnc(Nc3ccc(F)c(Cl)c3)c2cc1OCCCN1CCOCC1 [gefitinib]
suppression of phosphorylation of EGFR and downstream signal (in words) [1]: did not substantially demonstrate the phosphorylation suppression effect | suppression of phosphorylation of EGFR and downstream signal (in words) [2]: the same effect as afatinib | suppression of phosphorylation of EGFR and downstream signal (in words) [3]: also very strongly suppressed the phosphorylation | PFS [4]: 10.8 months | HR of PFS ([5]; WJTOG3405, gefitinib vs CDDP+DTX): 0.520 | PFS ([5]; WJTOG3405): 9.6 months | suppression of phosphorylation of EGFR and downstream signal (in words) [6]: neither of afatinib, osimertinib, or gefitinib demonstrated the suppression effect
